Literature values, collected in patent US8815249B2 (priority 1999, dated 2014).

Molecular target: HER-2/neu (Homo sapiens, UniProt P04626)
Conditions: in vivo; cited from earlier work

Substance: Herceptin
- 1 year survival rate: 78%
- duration of response (median): 9.1
- median survival: 25.1 mo
- rate of objective response: 50%
- reduction in the risk of death: 20%
- time to disease progression: 7.4 mo
